Starred links: 1 amine or outer side, 2 acyl side, 3 side chain; linkers in the order of their positions; H or OH if unused. Non-standard residues stand in square brackets, D forms with d. Residues, ends and D or L forms follow the SMILES beside them. X2 = NCCCC[C@H](N)CN([C@@H](Cc1ccc(O)cc1)C(=O)[*:2])[*:1]
Experiments:
AT4 receptor [1] = biological target: T1, AT4 receptor (Bos taurus, UniProt F1N1Q8); assay: 125I-AIV binding and competition, solubilized bovine adrenal cortical receptor; settings: competition of 125I-AIV binding
T1 sequence (F1N1Q8 1-1022): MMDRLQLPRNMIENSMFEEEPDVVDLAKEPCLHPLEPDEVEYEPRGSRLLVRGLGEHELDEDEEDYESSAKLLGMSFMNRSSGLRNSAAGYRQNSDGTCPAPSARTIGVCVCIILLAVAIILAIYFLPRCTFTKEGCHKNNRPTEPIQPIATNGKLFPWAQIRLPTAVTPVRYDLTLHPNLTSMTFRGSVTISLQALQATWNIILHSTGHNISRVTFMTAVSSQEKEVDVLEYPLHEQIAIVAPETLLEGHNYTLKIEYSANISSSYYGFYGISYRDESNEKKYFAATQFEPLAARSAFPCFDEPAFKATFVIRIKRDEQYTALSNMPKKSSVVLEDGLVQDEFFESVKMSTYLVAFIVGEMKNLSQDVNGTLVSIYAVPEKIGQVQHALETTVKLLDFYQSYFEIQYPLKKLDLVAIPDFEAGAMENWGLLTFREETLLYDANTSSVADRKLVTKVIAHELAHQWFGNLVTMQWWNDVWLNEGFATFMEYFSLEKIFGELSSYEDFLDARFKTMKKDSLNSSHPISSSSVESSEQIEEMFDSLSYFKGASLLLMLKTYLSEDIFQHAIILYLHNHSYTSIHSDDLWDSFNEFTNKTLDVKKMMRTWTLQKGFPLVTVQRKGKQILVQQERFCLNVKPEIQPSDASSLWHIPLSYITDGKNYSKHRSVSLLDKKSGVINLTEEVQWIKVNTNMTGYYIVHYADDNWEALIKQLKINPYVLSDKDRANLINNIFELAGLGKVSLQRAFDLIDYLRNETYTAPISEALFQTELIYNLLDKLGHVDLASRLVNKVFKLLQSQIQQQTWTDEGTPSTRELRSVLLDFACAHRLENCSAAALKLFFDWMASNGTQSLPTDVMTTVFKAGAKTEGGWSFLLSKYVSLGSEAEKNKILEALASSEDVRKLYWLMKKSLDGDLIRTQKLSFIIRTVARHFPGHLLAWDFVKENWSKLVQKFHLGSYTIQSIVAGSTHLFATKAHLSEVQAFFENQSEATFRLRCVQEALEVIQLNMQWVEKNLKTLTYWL

AIV angiotensinase = assay: Formation of 125I-AIV from 125I-AI; type: biochemical
AT4 receptor [2] = biological target: T2, AT4 receptor (Cavia porcellus, UniProt H0VNM7); assay: Autoradiography of 125I-AIV binding in guinea pig brain; settings: 100 nM competitor, FIG. 3
T2 sequence (H0VNM7 1-1025): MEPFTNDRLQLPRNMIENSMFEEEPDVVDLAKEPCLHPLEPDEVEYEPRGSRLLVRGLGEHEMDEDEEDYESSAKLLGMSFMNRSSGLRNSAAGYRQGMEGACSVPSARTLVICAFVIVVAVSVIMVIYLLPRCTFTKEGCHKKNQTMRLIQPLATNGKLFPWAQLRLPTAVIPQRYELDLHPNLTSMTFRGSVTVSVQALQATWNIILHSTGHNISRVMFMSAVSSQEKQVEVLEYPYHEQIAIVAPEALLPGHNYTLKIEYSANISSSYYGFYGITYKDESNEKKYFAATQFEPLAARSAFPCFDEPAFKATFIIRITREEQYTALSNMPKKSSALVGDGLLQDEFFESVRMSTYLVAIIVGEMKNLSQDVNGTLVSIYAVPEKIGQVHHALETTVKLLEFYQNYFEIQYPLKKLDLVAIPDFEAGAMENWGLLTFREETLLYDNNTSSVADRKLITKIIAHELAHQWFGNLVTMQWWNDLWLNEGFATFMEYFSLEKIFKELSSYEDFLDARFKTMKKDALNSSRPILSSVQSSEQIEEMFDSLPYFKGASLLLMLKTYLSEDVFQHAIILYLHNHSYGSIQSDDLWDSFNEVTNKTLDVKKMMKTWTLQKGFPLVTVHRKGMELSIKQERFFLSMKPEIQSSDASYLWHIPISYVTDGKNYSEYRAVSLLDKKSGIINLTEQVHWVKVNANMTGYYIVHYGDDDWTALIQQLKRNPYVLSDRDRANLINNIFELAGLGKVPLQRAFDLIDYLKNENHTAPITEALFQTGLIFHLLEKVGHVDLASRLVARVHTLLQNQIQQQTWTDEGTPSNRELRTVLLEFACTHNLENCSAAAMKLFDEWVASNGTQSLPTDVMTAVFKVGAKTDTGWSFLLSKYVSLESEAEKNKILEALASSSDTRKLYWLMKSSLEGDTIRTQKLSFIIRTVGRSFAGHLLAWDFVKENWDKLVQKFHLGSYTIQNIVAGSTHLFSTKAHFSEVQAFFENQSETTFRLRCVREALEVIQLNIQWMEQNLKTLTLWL

| Compound | Ki (AT4 receptor [1]) | inhibition of 125I-AIV formation from 125I-AI (AIV angiotensinase) | inhibition of 125I-AIV binding by non-labeled competitor (AT4 receptor [2]) |
| --- | --- | --- | --- |
| CC[C@H](C)[C@H](NC(=O)[C@H](Cc1ccc(O)cc1)NC(=O)[C@@H](NC(=O)[C@@H](N)CCCNC(=N)N)C(C)C)C(=O)N[C@@H](Cc1c[nH]cn1)C(=O)N1CCC[C@H]1C(=O)N[C@@H](Cc1ccccc1)C(=O)O [AIII, Arg1 Val2 Tyr3 Ile4 His5 Pro6 Phe7, reference compound] | 22.8 nM | excellent and specific inhibitors |  |
| CC[C@H](C)[C@H](NC(=O)[C@H](Cc1ccc(O)cc1)NC[C@@H](N)CCCCN)C(=O)N[C@@H](Cc1c[nH]cn1)C(=O)N1CCC[C@H]1C(=O)N[C@@H](Cc1ccccc1)C(=O)O [Kal1 AIV] (H-[X2]IHPF-OH) | 2.13 nM |  |  |
| CC(C)[C@@H](CN[C@@H](Cc1c[nH]cn1)C(=O)N1CCC[C@H]1C(=O)N[C@@H](Cc1ccccc1)C(=O)O)NC(=O)[C@H](Cc1ccc(O)cc1)NC[C@@H](N)CCCCN [Kal1 Val3 AIV] | 1.03 nM |  |  |
| Asp1 Arg2 Val3 Tyr4 Ile5 His6 Pro7 Phe8 (DRVYIHPF) [AII] | > 1000 nM | excellent and specific inhibitors |  |
| CGP 42112A | > 100000 nM |  |  |
| KYI | 30 nM |  |  |
| NleYI [Nle-Y-I] | 8.3 nM |  |  |
| SRVYIHPI [Sar1, Ile8 -AII] | > 1000 nM |  | not competitively inhibited |
| V1 Y2 I3 H4 P5 F6 H7 L8 (VYIHPFHL) [AI(3-10)] | 0.963 nM |  |  |
| VYIHP [des Phe6 -AIV] | 74.5 nM |  |  |
